These results are taken from ChEMBL document CHEMBL5523684, “Development of a tetrahydroindazolone-based HDAC6 inhibitor with in-vivo anti-arthritic activity” (Bioorg Med Chem, 2024).

Protein sequences, listed by entry. Tags and fused reporters are not part of them. Lines headed by an entry give the natural chain unless they say otherwise; changes in a name come on top.
UniProt Q9UKV0: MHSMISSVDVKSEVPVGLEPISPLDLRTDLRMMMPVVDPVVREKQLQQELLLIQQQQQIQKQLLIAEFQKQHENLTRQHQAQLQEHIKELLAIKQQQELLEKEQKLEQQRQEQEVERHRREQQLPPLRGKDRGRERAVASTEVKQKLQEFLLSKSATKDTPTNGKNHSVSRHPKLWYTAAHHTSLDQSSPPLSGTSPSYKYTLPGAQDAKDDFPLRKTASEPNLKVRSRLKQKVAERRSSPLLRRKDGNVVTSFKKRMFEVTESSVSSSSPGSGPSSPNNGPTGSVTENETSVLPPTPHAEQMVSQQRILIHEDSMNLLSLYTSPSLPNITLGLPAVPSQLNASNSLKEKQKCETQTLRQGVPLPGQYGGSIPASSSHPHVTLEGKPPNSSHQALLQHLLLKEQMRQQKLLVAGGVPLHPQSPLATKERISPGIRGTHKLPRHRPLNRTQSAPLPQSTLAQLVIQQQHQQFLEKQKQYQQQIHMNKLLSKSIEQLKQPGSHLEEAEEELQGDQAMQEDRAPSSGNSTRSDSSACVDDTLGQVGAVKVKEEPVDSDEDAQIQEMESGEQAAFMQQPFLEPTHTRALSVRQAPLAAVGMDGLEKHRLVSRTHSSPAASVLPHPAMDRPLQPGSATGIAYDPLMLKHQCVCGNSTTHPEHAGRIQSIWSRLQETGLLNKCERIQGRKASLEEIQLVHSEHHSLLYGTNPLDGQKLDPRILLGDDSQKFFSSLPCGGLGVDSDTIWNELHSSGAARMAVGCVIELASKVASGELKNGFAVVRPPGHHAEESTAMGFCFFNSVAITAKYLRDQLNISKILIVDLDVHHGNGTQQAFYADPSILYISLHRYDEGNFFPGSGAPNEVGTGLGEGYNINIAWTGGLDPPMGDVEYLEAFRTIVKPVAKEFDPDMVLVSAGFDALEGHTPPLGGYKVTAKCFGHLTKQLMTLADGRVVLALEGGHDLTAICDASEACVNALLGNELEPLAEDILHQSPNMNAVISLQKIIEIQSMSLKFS

The target of this assay is Histone deacetylase 9 (Homo sapiens, UniProt Q9UKV0). Kind of assay: Inhibition of human recombinant HDAC9 using Boc-Lys(tri-fluoroacetyl)-AMC as substrate by fluorescence based analysis.

As usually defined, the IC50 is the midpoint of a concentration-inhibition curve. In the case of `CC(/C=C/C(=O)NO)=C\[C@@H](C)C(=O)c1ccc(N(C)C)cc1` [TRICHOSTATIN], the IC50 is 4.78 µM.
